These results are taken from BindingDB's records for doi:10.1021/cb700200w (Novartis, 2008).

Molecules are shown by their SMILES.

A word on the IC50: it is the concentration at which inhibition is half-maximal. Low readings indicate inhibition by little substance, high ones a need for much substance.

In this experiment the target is T1, Aurora kinase A (Homo sapiens, UniProt O14965).
T1 sequence (O14965 whole entry): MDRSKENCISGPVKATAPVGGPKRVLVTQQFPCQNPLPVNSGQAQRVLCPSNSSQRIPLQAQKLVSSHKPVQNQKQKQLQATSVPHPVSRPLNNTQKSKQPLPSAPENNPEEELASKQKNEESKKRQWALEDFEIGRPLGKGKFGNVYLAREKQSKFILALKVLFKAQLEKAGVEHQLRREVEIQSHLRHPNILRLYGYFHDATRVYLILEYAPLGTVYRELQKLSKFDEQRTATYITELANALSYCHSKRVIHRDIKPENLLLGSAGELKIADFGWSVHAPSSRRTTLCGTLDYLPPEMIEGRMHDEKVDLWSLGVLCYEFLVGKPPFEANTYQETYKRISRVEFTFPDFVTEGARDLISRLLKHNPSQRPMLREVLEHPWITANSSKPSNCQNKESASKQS
In words: Aurora Kinase SPA Assay. Conditions: pH 7; 22 °C. Here is the method:
The biochemical activity of compounds was determined by incubation with Aurora A and substrates in the presence ATP/[gamma-33P] ATP. After incubation, the reaction was stopped and the phosphorylated substrate was separated from nonincorporated radioactive ATP using SPA beads (Amersham Pharmacia Biotech), counted using TopCount (Packard) to measure substrate-incorporated phosphate.

With `CNC(=O)c1ccc(Nc2ncc(Br)s2)cc1` [4-[(5-bromo-1,3-thiazol-2-yl)amino]-N-methylbenzamide], the IC50 was found to be 0.14 µM.
